Assays:
Type in all cases: biochemical
[1] = molecular target: 266 human kinases (Homo sapiens, UniProt P16234, D842V); conditions: PDGFRα(D842V)(h); 100 μM
In short: (§1)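 Radiometric filter-binding format: a positively charged substrate takes up radiolabelled phosphate from ATP unless the kinase is inhibited, then is captured on a negatively charged filter membrane. Counts from scintillation are expressed relative to a 100% activity control.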

Sequences of proteins named here, by UniProt entry; tags and fusion partners are left off. A change or cut given only in a name is not applied to a line headed by its entry. Residues count along the entry.
UniProt P16234, 24-1089 D842V: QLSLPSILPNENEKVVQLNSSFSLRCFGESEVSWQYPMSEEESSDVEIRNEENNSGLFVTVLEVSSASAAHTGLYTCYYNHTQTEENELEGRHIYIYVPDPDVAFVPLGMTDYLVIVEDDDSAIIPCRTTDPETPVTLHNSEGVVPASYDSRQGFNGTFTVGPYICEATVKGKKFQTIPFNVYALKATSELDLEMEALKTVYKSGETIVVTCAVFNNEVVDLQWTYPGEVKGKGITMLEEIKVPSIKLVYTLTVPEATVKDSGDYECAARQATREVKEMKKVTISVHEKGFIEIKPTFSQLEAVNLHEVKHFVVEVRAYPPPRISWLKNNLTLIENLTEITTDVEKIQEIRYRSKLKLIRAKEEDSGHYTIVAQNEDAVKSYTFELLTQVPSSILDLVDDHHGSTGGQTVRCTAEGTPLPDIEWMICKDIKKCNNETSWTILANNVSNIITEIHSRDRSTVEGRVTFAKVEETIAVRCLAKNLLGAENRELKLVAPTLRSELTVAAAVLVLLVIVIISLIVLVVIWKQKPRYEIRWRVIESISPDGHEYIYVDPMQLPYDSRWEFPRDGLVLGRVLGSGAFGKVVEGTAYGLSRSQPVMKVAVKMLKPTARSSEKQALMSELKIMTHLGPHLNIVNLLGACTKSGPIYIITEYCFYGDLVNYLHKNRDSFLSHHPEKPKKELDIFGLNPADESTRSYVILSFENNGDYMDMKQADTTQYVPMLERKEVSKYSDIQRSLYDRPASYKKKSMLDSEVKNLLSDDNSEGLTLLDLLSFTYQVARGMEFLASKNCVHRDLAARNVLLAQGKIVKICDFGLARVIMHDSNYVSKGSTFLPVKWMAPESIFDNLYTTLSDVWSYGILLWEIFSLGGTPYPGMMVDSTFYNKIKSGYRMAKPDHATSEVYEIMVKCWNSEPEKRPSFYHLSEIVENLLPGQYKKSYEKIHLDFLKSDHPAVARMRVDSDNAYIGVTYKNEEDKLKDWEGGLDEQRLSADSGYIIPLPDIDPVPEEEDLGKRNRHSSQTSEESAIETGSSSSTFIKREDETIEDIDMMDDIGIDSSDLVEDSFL
UniProt Q9Y5S2: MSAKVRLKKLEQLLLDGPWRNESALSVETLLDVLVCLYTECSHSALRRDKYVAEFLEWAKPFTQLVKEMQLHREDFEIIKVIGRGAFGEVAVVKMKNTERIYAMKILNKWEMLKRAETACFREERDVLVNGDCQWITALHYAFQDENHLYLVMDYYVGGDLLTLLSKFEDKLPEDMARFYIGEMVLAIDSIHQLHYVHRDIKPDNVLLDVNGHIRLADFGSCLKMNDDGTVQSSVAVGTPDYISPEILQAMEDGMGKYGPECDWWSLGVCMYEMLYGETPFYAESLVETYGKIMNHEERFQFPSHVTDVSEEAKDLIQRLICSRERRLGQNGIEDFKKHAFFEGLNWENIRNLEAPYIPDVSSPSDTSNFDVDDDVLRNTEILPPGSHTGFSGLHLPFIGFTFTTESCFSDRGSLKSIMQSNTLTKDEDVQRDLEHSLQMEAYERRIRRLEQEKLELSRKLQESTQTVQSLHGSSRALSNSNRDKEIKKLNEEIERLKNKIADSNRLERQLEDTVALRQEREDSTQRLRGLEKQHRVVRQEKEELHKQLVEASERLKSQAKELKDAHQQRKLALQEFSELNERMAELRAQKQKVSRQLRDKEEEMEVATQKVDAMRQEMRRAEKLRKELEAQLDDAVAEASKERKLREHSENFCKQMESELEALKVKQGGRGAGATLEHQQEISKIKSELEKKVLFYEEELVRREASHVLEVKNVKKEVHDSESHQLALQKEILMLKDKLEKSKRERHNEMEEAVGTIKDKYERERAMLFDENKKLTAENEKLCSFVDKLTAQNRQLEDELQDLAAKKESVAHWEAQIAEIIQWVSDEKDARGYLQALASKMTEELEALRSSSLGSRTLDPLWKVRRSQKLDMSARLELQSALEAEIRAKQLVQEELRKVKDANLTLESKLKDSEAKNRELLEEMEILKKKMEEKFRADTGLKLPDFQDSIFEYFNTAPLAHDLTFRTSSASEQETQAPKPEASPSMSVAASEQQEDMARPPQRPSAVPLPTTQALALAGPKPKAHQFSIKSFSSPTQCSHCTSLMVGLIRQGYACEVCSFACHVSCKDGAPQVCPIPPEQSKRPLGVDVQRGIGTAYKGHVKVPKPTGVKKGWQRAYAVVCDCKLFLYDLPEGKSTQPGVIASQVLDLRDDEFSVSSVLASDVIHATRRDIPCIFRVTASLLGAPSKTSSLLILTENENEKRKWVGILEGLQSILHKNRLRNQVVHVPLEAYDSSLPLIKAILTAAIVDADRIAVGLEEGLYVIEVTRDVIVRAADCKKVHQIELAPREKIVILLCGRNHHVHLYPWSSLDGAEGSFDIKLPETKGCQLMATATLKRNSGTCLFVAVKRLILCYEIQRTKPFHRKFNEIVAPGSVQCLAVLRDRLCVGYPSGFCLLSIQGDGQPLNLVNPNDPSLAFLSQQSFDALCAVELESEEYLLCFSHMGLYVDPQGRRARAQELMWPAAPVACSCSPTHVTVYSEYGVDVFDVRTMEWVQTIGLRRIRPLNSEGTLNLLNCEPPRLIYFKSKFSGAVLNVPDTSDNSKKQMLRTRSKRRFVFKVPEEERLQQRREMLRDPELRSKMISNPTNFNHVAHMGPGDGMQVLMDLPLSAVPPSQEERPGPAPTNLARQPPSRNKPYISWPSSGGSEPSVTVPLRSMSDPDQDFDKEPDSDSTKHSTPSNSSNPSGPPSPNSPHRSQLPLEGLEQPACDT
UniProt Q16832, 22-855: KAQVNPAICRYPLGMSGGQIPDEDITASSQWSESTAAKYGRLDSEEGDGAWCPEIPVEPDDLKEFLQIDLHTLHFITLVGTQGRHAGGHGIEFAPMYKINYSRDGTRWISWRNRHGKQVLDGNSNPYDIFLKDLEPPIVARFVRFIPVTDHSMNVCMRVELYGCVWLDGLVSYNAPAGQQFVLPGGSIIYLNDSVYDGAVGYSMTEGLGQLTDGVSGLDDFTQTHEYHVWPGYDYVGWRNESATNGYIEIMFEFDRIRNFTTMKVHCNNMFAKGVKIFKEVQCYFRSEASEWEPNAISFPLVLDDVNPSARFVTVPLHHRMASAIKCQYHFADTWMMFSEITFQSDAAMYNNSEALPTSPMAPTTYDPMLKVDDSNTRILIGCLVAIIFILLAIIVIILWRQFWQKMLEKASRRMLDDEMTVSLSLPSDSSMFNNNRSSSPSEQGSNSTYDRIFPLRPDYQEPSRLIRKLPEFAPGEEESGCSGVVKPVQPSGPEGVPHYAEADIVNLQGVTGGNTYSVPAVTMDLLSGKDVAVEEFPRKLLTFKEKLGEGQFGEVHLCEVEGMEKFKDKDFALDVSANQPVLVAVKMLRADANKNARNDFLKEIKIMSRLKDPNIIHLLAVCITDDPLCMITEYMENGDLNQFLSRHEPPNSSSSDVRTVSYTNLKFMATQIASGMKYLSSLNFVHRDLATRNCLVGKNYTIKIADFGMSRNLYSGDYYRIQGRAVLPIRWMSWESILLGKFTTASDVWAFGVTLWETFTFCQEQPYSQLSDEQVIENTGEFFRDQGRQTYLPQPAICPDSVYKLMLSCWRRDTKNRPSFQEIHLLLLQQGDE
UniProt Q86Z02: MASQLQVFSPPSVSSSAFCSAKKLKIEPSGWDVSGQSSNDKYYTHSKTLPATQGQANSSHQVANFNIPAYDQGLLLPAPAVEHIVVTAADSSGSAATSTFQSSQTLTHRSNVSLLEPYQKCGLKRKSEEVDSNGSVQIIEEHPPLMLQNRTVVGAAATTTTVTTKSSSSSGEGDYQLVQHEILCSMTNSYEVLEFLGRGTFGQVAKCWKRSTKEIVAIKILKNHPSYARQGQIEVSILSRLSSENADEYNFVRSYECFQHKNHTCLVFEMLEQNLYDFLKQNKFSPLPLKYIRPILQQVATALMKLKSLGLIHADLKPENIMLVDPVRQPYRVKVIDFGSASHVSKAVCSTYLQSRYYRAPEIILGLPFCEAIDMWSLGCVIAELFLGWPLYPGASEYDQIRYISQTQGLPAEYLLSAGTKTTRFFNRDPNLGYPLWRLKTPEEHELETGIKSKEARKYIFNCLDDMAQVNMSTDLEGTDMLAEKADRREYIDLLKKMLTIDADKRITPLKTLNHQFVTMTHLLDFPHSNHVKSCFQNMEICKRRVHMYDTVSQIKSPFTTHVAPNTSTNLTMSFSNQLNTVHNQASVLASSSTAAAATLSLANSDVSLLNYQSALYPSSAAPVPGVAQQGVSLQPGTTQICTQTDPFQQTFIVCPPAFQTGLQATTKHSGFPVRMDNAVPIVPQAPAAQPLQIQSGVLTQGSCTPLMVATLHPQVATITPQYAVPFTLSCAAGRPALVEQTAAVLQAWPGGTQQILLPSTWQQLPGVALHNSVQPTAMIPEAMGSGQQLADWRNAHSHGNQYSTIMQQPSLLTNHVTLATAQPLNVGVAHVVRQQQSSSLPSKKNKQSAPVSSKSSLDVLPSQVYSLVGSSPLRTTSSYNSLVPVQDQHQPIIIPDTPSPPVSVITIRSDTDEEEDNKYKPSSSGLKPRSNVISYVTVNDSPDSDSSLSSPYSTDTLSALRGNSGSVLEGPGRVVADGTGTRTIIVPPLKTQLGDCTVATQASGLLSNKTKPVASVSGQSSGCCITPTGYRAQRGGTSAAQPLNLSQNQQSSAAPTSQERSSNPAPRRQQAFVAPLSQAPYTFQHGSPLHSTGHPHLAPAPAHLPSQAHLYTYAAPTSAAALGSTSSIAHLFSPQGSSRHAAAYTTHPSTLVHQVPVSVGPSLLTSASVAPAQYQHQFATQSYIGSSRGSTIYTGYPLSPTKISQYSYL
UniProt P50750, whole entry: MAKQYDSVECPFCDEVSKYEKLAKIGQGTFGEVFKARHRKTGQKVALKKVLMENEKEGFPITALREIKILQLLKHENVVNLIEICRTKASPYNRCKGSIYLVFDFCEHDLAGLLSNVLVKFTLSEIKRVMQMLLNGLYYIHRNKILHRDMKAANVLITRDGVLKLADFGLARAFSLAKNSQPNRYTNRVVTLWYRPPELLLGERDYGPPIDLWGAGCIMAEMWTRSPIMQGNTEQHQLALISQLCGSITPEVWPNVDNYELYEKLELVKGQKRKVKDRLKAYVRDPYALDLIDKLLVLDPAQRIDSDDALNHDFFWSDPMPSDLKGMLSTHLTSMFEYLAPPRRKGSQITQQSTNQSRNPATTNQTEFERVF

[2] = molecular target: T1, 266 human kinases (Homo sapiens, UniProt Q8IW41); conditions: PRAK(h); 100 μM
T1 sequence (Q8IW41 1-473): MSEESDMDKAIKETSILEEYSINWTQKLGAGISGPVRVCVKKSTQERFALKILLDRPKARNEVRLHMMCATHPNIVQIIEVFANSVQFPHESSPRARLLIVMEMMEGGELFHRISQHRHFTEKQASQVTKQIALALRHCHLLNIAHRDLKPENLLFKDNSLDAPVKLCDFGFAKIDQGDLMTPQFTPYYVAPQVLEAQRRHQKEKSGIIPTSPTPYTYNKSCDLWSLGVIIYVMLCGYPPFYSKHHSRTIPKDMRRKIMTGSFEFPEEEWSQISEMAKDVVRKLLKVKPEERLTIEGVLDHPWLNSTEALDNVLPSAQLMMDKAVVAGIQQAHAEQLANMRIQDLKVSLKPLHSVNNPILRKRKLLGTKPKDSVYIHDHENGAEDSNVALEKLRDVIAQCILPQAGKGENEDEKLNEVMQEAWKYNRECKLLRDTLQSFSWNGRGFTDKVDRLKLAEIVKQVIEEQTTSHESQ
In short: as §1

[3] = molecular target: 266 human kinases (Homo sapiens, UniProt Q9Y5S2); conditions: MRCKβ(h); 100 μM
In short: as §1

[4] = molecular target: 266 human kinases (Homo sapiens, UniProt P28482); conditions: MAPK2(h); 100 μM
In short: as §1

[5] = molecular target: 266 human kinases (Homo sapiens, UniProt P10721, V560G); conditions: cKit(V560G)(h); 100 μM
In short: as §1

[6] = molecular target: 266 human kinases (Homo sapiens, UniProt Q16832); conditions: DDR2(h); 100 μM
In short: as §1

[7] = molecular target: T2, 266 human kinases (Homo sapiens, UniProt Q9HBY8); conditions: SGK2(h); 100 μM
T2 sequence (Q9HBY8 whole entry, looked up): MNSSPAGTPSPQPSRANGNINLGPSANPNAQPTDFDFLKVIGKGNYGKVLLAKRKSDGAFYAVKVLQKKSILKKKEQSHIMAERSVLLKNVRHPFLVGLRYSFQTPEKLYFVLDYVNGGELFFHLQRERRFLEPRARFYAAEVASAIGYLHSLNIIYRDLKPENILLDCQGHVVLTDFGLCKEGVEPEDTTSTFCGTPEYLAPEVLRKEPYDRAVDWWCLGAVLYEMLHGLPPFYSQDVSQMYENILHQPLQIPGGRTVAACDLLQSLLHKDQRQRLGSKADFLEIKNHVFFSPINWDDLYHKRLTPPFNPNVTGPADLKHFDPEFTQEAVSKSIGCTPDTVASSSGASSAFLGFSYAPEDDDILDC
In short: as §1

[8] = molecular target: 266 human kinases (Homo sapiens, UniProt Q86Z02); conditions: HIPK1(h); 100 μM
In short: as §1

[9] = molecular target: T3, 266 human kinases (Homo sapiens, UniProt Q9H2K8); conditions: TAO3(h); 100 μM
T3 sequence (Q9H2K8 1-898): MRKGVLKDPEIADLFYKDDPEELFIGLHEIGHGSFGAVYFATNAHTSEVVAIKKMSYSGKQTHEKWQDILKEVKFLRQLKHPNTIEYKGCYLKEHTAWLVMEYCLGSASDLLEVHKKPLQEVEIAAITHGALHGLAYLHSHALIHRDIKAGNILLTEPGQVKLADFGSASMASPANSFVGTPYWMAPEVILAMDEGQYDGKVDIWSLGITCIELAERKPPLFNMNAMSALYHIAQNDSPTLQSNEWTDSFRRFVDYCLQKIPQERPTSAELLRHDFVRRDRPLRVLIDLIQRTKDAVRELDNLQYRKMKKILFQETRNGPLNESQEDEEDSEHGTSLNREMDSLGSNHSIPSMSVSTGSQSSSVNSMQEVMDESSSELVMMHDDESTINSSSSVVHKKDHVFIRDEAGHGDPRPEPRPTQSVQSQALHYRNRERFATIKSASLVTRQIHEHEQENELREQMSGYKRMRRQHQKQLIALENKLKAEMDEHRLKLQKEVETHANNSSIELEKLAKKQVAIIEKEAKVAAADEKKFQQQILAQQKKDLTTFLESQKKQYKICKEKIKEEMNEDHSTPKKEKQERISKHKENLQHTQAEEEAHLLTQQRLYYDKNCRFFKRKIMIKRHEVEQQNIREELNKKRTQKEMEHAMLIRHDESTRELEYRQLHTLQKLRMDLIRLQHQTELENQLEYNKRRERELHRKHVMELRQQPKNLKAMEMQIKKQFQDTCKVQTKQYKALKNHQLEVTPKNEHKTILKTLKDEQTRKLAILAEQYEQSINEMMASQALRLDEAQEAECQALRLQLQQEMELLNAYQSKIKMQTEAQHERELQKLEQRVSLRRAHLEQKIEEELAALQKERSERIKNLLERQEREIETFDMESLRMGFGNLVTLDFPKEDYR
In short: as §1

[10] = molecular target: 266 human kinases (Homo sapiens, UniProt P50750); conditions: CDK9/cyclin T1(h); 100 μM
In short: as §1

[11] = molecular target: T4, 266 human kinases (Homo sapiens, UniProt P51817); conditions: PrKX(h); 100 μM
T4 sequence (P51817 1-358): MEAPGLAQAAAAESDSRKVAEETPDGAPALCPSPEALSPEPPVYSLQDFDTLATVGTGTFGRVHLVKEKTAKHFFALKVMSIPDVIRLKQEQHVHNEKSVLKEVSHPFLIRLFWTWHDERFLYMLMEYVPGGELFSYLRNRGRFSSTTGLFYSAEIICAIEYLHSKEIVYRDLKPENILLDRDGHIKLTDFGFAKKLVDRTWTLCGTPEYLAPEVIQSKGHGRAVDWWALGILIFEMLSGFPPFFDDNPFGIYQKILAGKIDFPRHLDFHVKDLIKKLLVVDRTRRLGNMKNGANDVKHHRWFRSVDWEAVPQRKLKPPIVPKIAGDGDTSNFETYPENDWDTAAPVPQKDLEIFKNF
In short: as §1

YARAAARQARAKALNRQLGVA (mammal) [MMI-0200]
% activity [1]: 107% | % activity [2]: 115% | % activity [3]: 102% | % activity [4]: 105% | % activity [5]: 115% | % activity [6]: 104% | % activity [7]: 119% | % activity [8]: 115% | % activity [9]: 102% | % activity [10]: 103% | % activity [11]: 112%
